## Measured affinities in a library of Ab-95 light chain variants

From the AlphaSeq antibody data of Engelhart et al. 2022 (doi:10.1038/s41597-022-01779-4), copy in the FLAb collection.

Antigen: PDVDLGDISGINAS, a 14-residue peptide of the SARS-CoV-2 spike HR2 region.

Each scFv is VH, the linker GGGGSGGGGSGGGGS, VL, as in the parent Ab-95, and differs from it in the CDRs of the light chain only.
VH: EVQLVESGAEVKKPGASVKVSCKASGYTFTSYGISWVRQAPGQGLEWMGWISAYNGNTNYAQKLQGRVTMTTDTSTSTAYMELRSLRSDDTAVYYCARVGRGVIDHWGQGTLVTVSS
VL: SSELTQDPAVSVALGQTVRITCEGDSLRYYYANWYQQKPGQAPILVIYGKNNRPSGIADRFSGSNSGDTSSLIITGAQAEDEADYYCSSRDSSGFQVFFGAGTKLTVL

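Phage display of a naive human antibody library on the peptide gave the parent. AAYL52 was designed without a model: most single CDR substitutions and a random sample of double and triple ones. In AlphaSeq, yeast of one mating type display the scFv and yeast of the other type display the target. After mating in shaken culture at 30 °C for 16 h, diploids were selected and their barcode pairs sequenced. A regression on co-assayed BCL2-family reference pairs converts the normalised counts of each replicate to an apparent Kd. There are three technical replicates.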

Each variant is given by its three light chain CDRs, as the data file delimits them; those of the parent are EGDSLRYYYAN, GKNNRPS, SSRDSSGFQVF. Affinities are written as log10 Kd with Kd in nM; a lower number is a better binder. Averages over replicates are reported, and they cover detected replicates only. An entry "nd" has no value in the source: the pair was not observed among the diploids in that replicate. This suggests poor binding but is not conclusive. For reference, the parent read 2.31 as the reference entry and 2.25 as a member of this library. Empty control strains, which show no peptide, gave a signal in 28% of pairings with library AAYL52; the median was 3.91 and 95% of these signals were weaker than 2.90. No background was subtracted. The control count says in how many pairings with the empty strains this scFv gave a signal.

For EGDSLRYYWAN, GMNNRPS, SSRDSSGFQQF, the assay gave 3.03, 2.58, 2.88 (mean 2.83; controls 2 of 9).
For WGRSLRYYYAN, GKNNRPS, SWRDSSGFQVF, the assay gave 3.24, 3.87, 2.96 (mean 3.36; controls 4 of 9).
For EGDFLRYYYAN, GKNNRPS, SIRDKSGFQVF, the assay gave nd, nd, nd (controls 2 of 9).
For EGDSLRYGYAN, GKNNDPS, SMRDSSGFQVF, the assay gave nd, 3.58, nd (controls 3 of 9).
For EGDSLRYYYQN, GKNNRPS, SSRDSSGFCVF, the assay gave 3.43, nd, 4.40 (mean 3.91; controls 3 of 9).
For EGDSLRYYYGN, GKNNRPS, SSRDSWPFQVF, the assay gave 3.54, 3.07, 4.16 (mean 3.59; controls 1 of 9).
For EGDSLRLYYAN, GKGNRPS, SSRDSSGFQVG, the assay gave 3.44, 3.65, nd (mean 3.54; controls 2 of 9).
For EGDSLWYWYAN, GKNNRPS, SSRDSSPFQVF, the assay gave nd, nd, nd (controls 2 of 9).
For EGDSLRYVPAN, GKNNRCS, SSRDSSGFQVF, the assay gave 2.41, 2.17, 1.94 (mean 2.18; controls 2 of 9).
For EGDSLRYYYAN, GKNNRPS, SSIDYSGFQVH, the assay gave 2.86, 2.46, 2.03 (mean 2.45; controls 4 of 9).
For EGDSLRYIYAN, EKNNRSS, SSRDSSGFQVF, the assay gave 2.15, 2.89, 2.00 (mean 2.35; controls 2 of 9).
For EGDSLRYYEAN, GKNNRPS, SSRPSSGFQHF, the assay gave 1.97, 1.85, 1.12 (mean 1.64; controls 3 of 9).
For EGDSLRYYEAN, GKNNRPS, SSRDSSIFYVF, the assay gave nd, nd, nd (controls 1 of 9).
For EGDSLRYYYAR, GKNNMPS, SSRDSYGFQVF, the assay gave nd, 5.75, 4.06 (mean 4.91; controls 3 of 9).
For EGDSHRYNYAN, GPNNRPS, SSRDSSGFQVF, the assay gave 1.62, 1.59, 1.36 (mean 1.52; controls 2 of 9).
For EGDSLRYYYAN, GKNNRPS, SHRDSSGEQRF, the assay gave 3.01, 2.41, 2.89 (mean 2.77; controls 4 of 9).
For EGDSLRKYYAN, GKANRPS, SSRDSSGFQVF, the assay gave 2.46, 2.01, 2.37 (mean 2.28; controls 2 of 9).
For EGDSMRYYYAT, GKNNRPS, SSRDSWGFQVF, the assay gave nd, nd, nd (controls 5 of 9).
For EQDSLIYYYAN, GKNNRPS, SSRDSSNFQVF, the assay gave nd, nd, nd (controls 0 of 9).
For EGDWLRYYIAN, GKNNRPS, SKRDSSGFQVF, the assay gave nd, 5.49, nd (controls 1 of 9).
For EGDRLRYYYAN, GKNCLPS, SSRDSSGFQVF, the assay gave 3.66, nd, nd (controls 2 of 9).
For EGDESRYYYAN, GKNNRPS, SSRDSSGFQVF, the assay gave nd, nd, 4.18 (controls 2 of 9).
For EGDSLRYYSAN, GKNNRWS, SSRDSSLFQVF, the assay gave 3.88, 3.12, 2.36 (mean 3.12; controls 4 of 9).
For EGDQLRTYYAN, GKNNRPS, SSRDSSGFQVF, the assay gave 3.19, 2.79, 3.13 (mean 3.04; controls 5 of 9).
For EGDSLRYYYAN, GKNNRPS, SSRDSSRFCVK, the assay gave nd, nd, nd (controls 1 of 9).
For EGDSLRYYYAN, VKNNRPS, SVRDSSGFQVY, the assay gave 5.53, 3.25, 4.75 (mean 4.51; controls 5 of 9).
For EGDSLRQYYAN, GKNNFPS, SQRDSSGFQVF, the assay gave nd, 3.72, nd (controls 1 of 9).
For YGDSLRYYYAN, GKNNWPS, SSRDSSGFLVF, the assay gave 4.31, nd, 4.10 (mean 4.21; controls 0 of 9).
For EGDSLRYRYAN, GKNNRES, SLRDSSGFQVF, the assay gave 1.81, 2.05, 1.81 (mean 1.89; controls 1 of 9).
For EGDSPRYYYAN, GKNTRPS, SSRDSSGFQHF, the assay gave nd, 5.28, nd (controls 0 of 9).
For EGDSLRYYWAN, TKNNRPV, SSRDSSGFQVF, the assay gave nd, nd, nd (controls 0 of 9).
For EGDSLRYYYAN, GKNFRPS, SSRDSSGFEYF, the assay gave 2.80, 4.03, nd (mean 3.42; controls 3 of 9).
For EGDSLRYYYAN, GKNNRPS, SWRDSSKFQVG, the assay gave 2.03, 1.89, 1.86 (mean 1.92; controls 1 of 9).

The closing 5 entries, repeated:

CDR-L1	CDR-L2	CDR-L3	log10 Kd, replicates	mean, log10 nM	empty controls
EGDSLRYRYAN	GKNNRES	SLRDSSGFQVF	1.81, 2.05, 1.81	1.89	1/9
EGDSPRYYYAN	GKNTRPS	SSRDSSGFQHF	nd, 5.28, nd	5.28	0/9
EGDSLRYYWAN	TKNNRPV	SSRDSSGFQVF	nd, nd, nd	nd	0/9
EGDSLRYYYAN	GKNFRPS	SSRDSSGFEYF	2.80, 4.03, nd	3.42	3/9
EGDSLRYYYAN	GKNNRPS	SWRDSSKFQVG	2.03, 1.89, 1.86	1.92	1/9